We go through 75 compounds from PubChem BioAssay AID624417 (National Center for Advancing Translational Sciences (NCATS), 2012).

Chains of the proteins cited; added tags and fusions are not shown.
UniProt P43220, whole entry, looked up: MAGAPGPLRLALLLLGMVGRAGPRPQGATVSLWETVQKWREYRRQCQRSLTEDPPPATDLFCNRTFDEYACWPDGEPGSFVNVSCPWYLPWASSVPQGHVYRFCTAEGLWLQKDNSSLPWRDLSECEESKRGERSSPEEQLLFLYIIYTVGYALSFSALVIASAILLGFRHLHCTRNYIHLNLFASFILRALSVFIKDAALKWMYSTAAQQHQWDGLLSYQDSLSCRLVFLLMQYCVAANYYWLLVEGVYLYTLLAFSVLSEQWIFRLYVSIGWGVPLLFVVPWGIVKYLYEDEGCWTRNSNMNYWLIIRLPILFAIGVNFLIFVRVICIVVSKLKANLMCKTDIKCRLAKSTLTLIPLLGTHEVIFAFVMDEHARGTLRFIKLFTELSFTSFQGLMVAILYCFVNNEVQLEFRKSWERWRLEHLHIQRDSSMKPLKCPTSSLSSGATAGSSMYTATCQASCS

The list shows a part of the results, in another mix than the full data. Results filed as inconclusive are left out. Active and inactive are the calls of the source. The call rests on the fitted dose curve; in most records, active means well fitted inhibition curve with a large enough effect; inconclusive means small, poorly fitted or top-dose-only effect; inactive means no such curve, though single readings can be large or run the other way.
On the % scale 0 is the no-effect control and ±100 the full control effect; potency means the concentration at half of the fitted maximal effect.

For this test, the target named is Glucagon-like peptide 1 receptor (Homo sapiens) (UniProt P43220). Description: qHTS of GLP-1 Receptor Inverse Agonists (Inhibition Mode). Further: nearly all actives have a fitted effect of over 55% in size. The settings on record: HEK293 GLP-1R CRE-luciferase, luminescence, 24 h, GLP-1R form is constitutively active; series mostly up to 38.3 µM; activity change, negative = inhibition: at the top concentration. On the technique in general: qHTS replaces the single test concentration by a dilution series.
Turning to `Nc1ccccc1[As](=O)(O)c1ccccc1`, the “activity change, negative = inhibition” value is inactive: -2.12%.

Consider `O=C(O)COc1ccc([As](=O)(O)O)cc1[N+](=O)[O-]`, for which the “activity change, negative = inhibition” value was inactive: -0.419%.

Take `CCOP1(=S)c2c(C)nn(CCC#N)c2N=C(c2ccccc2F)N1C` (stereo not given): the “activity change, negative = inhibition” value is inactive: 9.35%.

On to `O=P(Nc1nccs1)(Oc1ccccc1)Oc1ccccc1`, for which the “activity change, negative = inhibition” value was inactive: -20.7%.

Turning to `O=P(Nc1nccs1)(c1ccccc1)c1nc2ccccc2s1` (stereo not given), the “activity change, negative = inhibition” value is inactive: -0.31%.

Turning to `CS(=O)(=O)c1cc([N+](=O)[O-])c2no[n+]([O-])c2c1`, the “activity change, negative = inhibition” value is inactive: 12.7%.

For the compound `CN(C(=O)Cc1ccccc1)[C@@H]1CC[C@]2(CCCO2)C[C@H]1N1CCCC1`, the “activity change, negative = inhibition” value is inactive: 8.75%.

For the compound `CCOP1(=S)c2c(C)nn(CCC#N)c2N=C(c2ccc(F)cc2)N1C` (stereo not given), the “activity change, negative = inhibition” value was inactive: 4.35%.

As to `O=[N+]([O-])c1ccc2c(c1)nnn2O`, the “activity change, negative = inhibition” value was inactive: 8.47%.

For the compound `CN(C)C(=O)c1cc([N+](=O)[O-])cc2c1-c1c(cc([N+](=O)[O-])cc1[N+](=O)[O-])C2=O`, the “activity change, negative = inhibition” value was inactive: -5.41%.

Regarding `CN(C(=O)Cc1ccc(Cl)c(Cl)c1)[C@H]1CC[C@@]2(CCCO2)C[C@@H]1N1CCCC1`, the “activity change, negative = inhibition” value was inactive: -2.87%.

As to `NC(=O)Nc1ccc([As](=O)(O)O)cc1`, the “activity change, negative = inhibition” value was inactive: 13.3%.

Turning to `Cc1cccc(OCC(=O)OC2CN3CCC2CC3)c1` (stereo not given), the “activity change, negative = inhibition” value was inactive: 7.36%.

For `O=[As](O)(c1cccc(O)c1)c1cccc(O)c1`, the “activity change, negative = inhibition” value was inactive: -13.2%.

With `O=C(OC1CN2CCC1CC2)c1ccc(Cl)cc1` (stereo not given), the “activity change, negative = inhibition” value is inactive: -15.6%.

`O=[As](O)(O)c1cccnc1`: the “activity change, negative = inhibition” value is inactive: 20.2%.

Take `COc1cc(C(=O)NCC2(N3CCOCC3)CCCCC2)cc(Cl)c1OC(C)C`: the Potency is active: 3.55 µM.

On to `CS(=O)(=O)c1ccc(Cl)c(NC(=O)COC(=O)C(O)(c2ccccc2)c2ccccc2)c1`, for which the “activity change, negative = inhibition” value was inactive: -3.22%.

As to `COc1cc(C2NCCC3(OCCO3)C2(C)C)cc(OC)c1OC` (stereo not given), the “activity change, negative = inhibition” value is inactive: -7.57%.

Turning to `CCOP(=O)(Nc1cccc2ccccc12)OCC`, the “activity change, negative = inhibition” value was inactive: -24%.

As to `Cc1ccc(NCCc2c([N+](=O)[O-])cc([N+](=O)[O-])cc2[N+](=O)[O-])cc1`, the “activity change, negative = inhibition” value is inactive: -0.813%.

Turning to `Nc1cccc2c([As](=O)(O)O)cccc12`, the “activity change, negative = inhibition” value was inactive: 11.7%.

For the compound `CCCOP(=S)(Nc1nc(N)cc(=O)[nH]1)OCCC`, the “activity change, negative = inhibition” value is inactive: -5.8%.

With `O=P1(N(CCCl)CCCl)NCCC(C(F)(F)F)O1` (stereo not given), the “activity change, negative = inhibition” value is inactive: -6.29%.

As for `Clc1n[nH]nc1-c1nn[nH][15n]1`, the “activity change, negative = inhibition” value was inactive: 32.5%.

`CC(C)(C)C(=O)NC(Sc1ncccn1)C(Cl)(Cl)Cl` (stereo not given): the “activity change, negative = inhibition” value is inactive: -14.1%.

Consider `O=P1(Nc2ccccn2)COc2ccccc2OC1`, for which the “activity change, negative = inhibition” value is inactive: -0.733%.

With `CCOP(=O)(NC(=NC(C)c1ccccc1)NC(C)c1ccccc1)OCC` (stereo not given), the “activity change, negative = inhibition” value is inactive: -28.9%.

Turning to `CCOP(=O)(Nc1ccc(C)cn1)OCC`, the “activity change, negative = inhibition” value was inactive: 6.95%.

For the compound `CN(CCCl)Cc1cc(Cl)c(NC2=NCCN2)c(Cl)c1`, the “activity change, negative = inhibition” value was inactive: -6.14%.

Consider `CC(C)/C=N\N=C(\N)N[N+](=O)[O-]`, for which the “activity change, negative = inhibition” value was inactive: 1.72%.

`CN(C(=O)Cc1ccc(Cl)c(Cl)c1)[C@@H]1CCCC[C@H]1N1CCCC1`: the “activity change, negative = inhibition” value is inactive: 2.94%.

Turning to `CC1(CBr)Cn2c(nc3ccccc3c2=O)S1` (stereo not given), the “activity change, negative = inhibition” value is inactive: -0.0245%.

Consider `COc1ccccc1CNC(=O)COC(=O)C(O)(c1ccccc1)c1ccccc1`, for which the “activity change, negative = inhibition” value was inactive: -14.5%.

`CN(C)C1(CNC(=O)c2ccc(S(C)(=O)=O)cc2)CCCCC1`: the activity change, negative = inhibition is inactive: -21.8% [at 7.66 µM].

In the case of `CCCC1OP(=O)(Nc2ccccc2)OCC1CC` (stereo not given), the “activity change, negative = inhibition” value is inactive: -3.56%.

With `Cc1nn(-c2ccccc2)c2c1P(=O)(N1CCOCC1)N(C)C(c1ccccc1)=N2` (stereo not given), the “activity change, negative = inhibition” value was inactive: 14.8%.

With `Cc1ccc(C(=O)OC2CN3CCC2CC3)cc1` (stereo not given), the “activity change, negative = inhibition” value is inactive: -14.9%.

Take `Nc1cccc([As](=O)(O)c2ccccc2)c1`: the “activity change, negative = inhibition” value is inactive: 13.2%.

In the case of `Cc1ccc(OCC(=O)OC2CN3CCC2CC3)cc1` (stereo not given), the “activity change, negative = inhibition” value was inactive: -2.36%.

Turning to `O=[As](O)(c1cccs1)c1cccs1`, the “activity change, negative = inhibition” value was inactive: 2.82%.

Regarding `O=P1(Nc2ccc(Br)cn2)COc2ccccc2OC1`, the “activity change, negative = inhibition” value is inactive: -0.841%.

As for `NS(=O)(=O)c1cccc(NC(=O)COC(=O)C(O)(c2ccccc2)c2ccccc2)c1`, the “activity change, negative = inhibition” value is inactive: -17.6%.

For `Cc1ccc(S(=O)(=O)N(CCCN)CCCc2c(C)nc(N)[nH]c2=O)cc1`, the “activity change, negative = inhibition” value is inactive: -20.8%.

On to `O=P1(Nc2ncccn2)COc2ccccc2OC1`, for which the “activity change, negative = inhibition” value was inactive: 5.55%.

`COP(=O)(OC)N1CC1c1ccccc1` (stereo not given): the “activity change, negative = inhibition” value is inactive: -9.78%.

Regarding `Cc1cc(SC(NC(=O)c2ccccc2)C(Cl)(Cl)Cl)nc(C(C)C)n1` (stereo not given), the “activity change, negative = inhibition” value was inactive: 8.44%.

As to `CCOC(=O)Nc1ccc([As](=O)(O)O)c(O)c1`, the “activity change, negative = inhibition” value was inactive: -4.59%.

As for `O=C(O)C(O)c1ccc(N(CCCl)CCCl)cc1` (stereo not given), the “activity change, negative = inhibition” value is inactive: -12.9%.

In the case of `CC1CCNP(=O)(N(CCCl)CCCl)O1` (stereo not given), the “activity change, negative = inhibition” value is inactive: 8.36%.

For the compound `Cc1cc(SC(NC=O)C(Cl)(Cl)Cl)ncn1` (stereo not given), the “activity change, negative = inhibition” value was inactive: 6.13%.

With `O=[N+]([O-])c1ccc(Nc2ccc(Oc3ccc([N+](=O)[O-])cc3[N+](=O)[O-])cc2)c([N+](=O)[O-])c1`, the “activity change, negative = inhibition” value is inactive: -3.2%.

Regarding `CCOC(=O)Nc1cccc([As](=O)(O)O)c1`, the “activity change, negative = inhibition” value was inactive: 6.83%.

Turning to `O=C(COc1ccccc1)OC1CN2CCC1CC2` (stereo not given), the “activity change, negative = inhibition” value was inactive: -6.44%.

Regarding `O=C(Nc1ccncc1[N+](=O)[O-])c1ccc([N+](=O)[O-])cc1[N+](=O)[O-]`, the “activity change, negative = inhibition” value was inactive: -12.6%.

Take `COP1(=S)c2c(C)nn(CCC#N)c2N=C(c2ccc(F)cc2)N1C` (stereo not given): the “activity change, negative = inhibition” value was inactive: -3.13%.

For the compound `COC(=O)C1(C)COP(=O)(N2CCCC2)OC1` (stereo not given), the “activity change, negative = inhibition” value is inactive: 15.3%.

Regarding `CCOC(=O)c1ccc(NC(=O)C(C)(CCl)SC)cc1` (stereo not given), the “activity change, negative = inhibition” value was inactive: 8.2%.

For the compound `O=P1(N(CCCl)CCCl)Nc2ccccc2N1`, the “activity change, negative = inhibition” value was inactive: 18.1%.

For `O=P1(N(CCCl)CCCl)OCCCN1CCCl` (stereo not given), the “activity change, negative = inhibition” value is inactive: 15.8%.

In the case of `COc1cc(I)ccc1[As](=O)(O)O`, the “activity change, negative = inhibition” value was inactive: 22.4%.

In the case of `Cc1cc(=O)[nH]c(N[N+](=O)[O-])n1`, the “activity change, negative = inhibition” value was inactive: 11.4%.

For `O=[N+]([O-])c1cc(Oc2ccc([N+](=O)[O-])cc2C(F)(F)F)cc([N+](=O)[O-])c1`, the “activity change, negative = inhibition” value was inactive: 0.105%.

In the case of `COc1ccc(N/C(=N/P(=O)(N2CCOCC2)N2CCOCC2)N2CCOCC2)cc1`, the activity change, negative = inhibition was inactive: -2.27% [at 7.66 µM].

In the case of `[N-]=[N+]=NC1CCCCC1NC(=O)c1cc([N+](=O)[O-])cc([N+](=O)[O-])c1` (stereo not given), the “activity change, negative = inhibition” value was inactive: -27.5%.

Take `Cc1ccc(OP(=O)(Nc2ccc([N+](=O)[O-])cn2)Oc2ccc(C)cc2)cc1`: the “activity change, negative = inhibition” value is inactive: -5.63%.

Regarding `C[As](=O)(O)c1cccc(C(=O)O)c1`, the “activity change, negative = inhibition” value is inactive: 12%.

As for `O=[As](O)(c1ccc(O)cc1)c1ccccc1O`, the “activity change, negative = inhibition” value was inactive: 51.4%.

With `COc1cc(C(=O)NCC2(N3CCOCC3)CCCCC2)ccc1OCC(C)C`, the Potency was active: 4.47 µM.

`CC(C)NC(=O)NP(=O)(Oc1ccccc1)Oc1ccccc1`: the “activity change, negative = inhibition” value is inactive: -2.24%.

In the case of `CCN(CC)C(=S)SC(NC=O)C(Cl)(Cl)Cl` (stereo not given), the “activity change, negative = inhibition” value was inactive: -13.3%.

Regarding `O=C(OC1CN2CCC1CC2)c1cccc2[nH]cnc12` (stereo not given), the “activity change, negative = inhibition” value is inactive: 47.3%.

For the compound `ClCCSc1nnc(-c2cccnc2)o1`, the “activity change, negative = inhibition” value is inactive: 7.18%.

In the case of `COC(=O)C1(C)COP(=O)(N2CCCCCC2)OC1` (stereo not given), the “activity change, negative = inhibition” value is inactive: 0.801%.

On to `Cc1cc(SC(NC(=O)c2ccc(F)cc2)C(Cl)(Cl)Cl)ncn1` (stereo not given), for which the “activity change, negative = inhibition” value is inactive: 2.35%.
